Test results published in US6559140B2 (Abbott Laboratories, priority 2000, dated 2003).

Amino acid sequences for entries named in this document (tags omitted). Residues count along the entry.
UniProt Q9QYN8, 1-397 isoform Q9QYN8-3: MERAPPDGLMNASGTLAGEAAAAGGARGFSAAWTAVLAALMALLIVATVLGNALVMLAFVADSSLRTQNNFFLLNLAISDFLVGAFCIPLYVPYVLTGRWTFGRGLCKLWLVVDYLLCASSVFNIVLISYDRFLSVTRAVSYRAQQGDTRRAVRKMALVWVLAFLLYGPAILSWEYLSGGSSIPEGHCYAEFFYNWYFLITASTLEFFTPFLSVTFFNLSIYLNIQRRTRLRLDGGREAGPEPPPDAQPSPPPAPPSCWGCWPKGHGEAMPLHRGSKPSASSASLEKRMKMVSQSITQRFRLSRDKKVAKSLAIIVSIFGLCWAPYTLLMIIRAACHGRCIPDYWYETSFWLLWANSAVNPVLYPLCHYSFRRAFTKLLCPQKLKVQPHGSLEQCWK

Molecular target: H3 receptor (Rattus norvegicus, UniProt Q9QYN8)
Experiment: H3 receptor binding, (3H)-N-α-methylhistamine displacement in rat cortical membranes
Conditions: male Sprague-Dawley rat brain cortical membranes, 30 minutes at 25° C., Cheng-Prusoff, geometric mean values of 2-10 separate experiments
Experimental: Briefly, male Sprague-Dawley rat brain cortices were homogenized (1 g tissue/10 mL buffer) in 50 mM Tris-HCl/5 mM EDTA containing protease inhibitor cocktail (Calbiochem) using a polytron set at 20,500 rpm. Homogenates were centrifuged for 20 minutes at 40,000×g. The supernatant was decanted, and pellets were weighed. The pellet was resuspended by polytron homogenization in 40 mL 50 mM Tris-HCl/5 mM EDTA with protease inhibitors and centrifuged for 20 minutes at 40,000×g. […] Test compounds were added to the incubation mixtures prior to initiating the incubation assay by addition of the membranes. Thioperamide (3 μM) was used to determine nonspecific binding. Binding incubations were conducted for 30 minutes at 25° C. and terminated by addition of 2 mL of ice cold 50 mM Tris-HCl (H 7.7) and filtration through 0.3% polyethylenimine-soaked Unifilter plates (Packard). These filters were washed 4 additional times with 2 mL of ice-cold 50 mM Tris-HCl and dried for 1 hour. Radioactivity was determined using liquid scintillation counting techniques. Results were analyzed by Hill transformation and Ki values were determined using the Cheng-Prusoff equation.

Ki: 1.39 nM
Substance: N-{(1R)-2-[4-(3-{4-[5-(cyclopentylmethyl)-1,2,4-oxadiazol-3-yl]-3-fluorophenoxy}propyl)-1,4-diazepan-1-yl]-1-methyl-2-oxoethyl}-2-furamide [Example 145]
